One compound from publication PMC7714403, “TP-0903 is active in models of drug-resistant acute myeloid leukemia” (JCI Insight, 2020) can be followed below.

For this assay, the target named is T1, AXL (Homo sapiens, UniProt P30530).
T1 construct: purchased Eurofins DiscoverX
T1 sequence (P30530 26-894): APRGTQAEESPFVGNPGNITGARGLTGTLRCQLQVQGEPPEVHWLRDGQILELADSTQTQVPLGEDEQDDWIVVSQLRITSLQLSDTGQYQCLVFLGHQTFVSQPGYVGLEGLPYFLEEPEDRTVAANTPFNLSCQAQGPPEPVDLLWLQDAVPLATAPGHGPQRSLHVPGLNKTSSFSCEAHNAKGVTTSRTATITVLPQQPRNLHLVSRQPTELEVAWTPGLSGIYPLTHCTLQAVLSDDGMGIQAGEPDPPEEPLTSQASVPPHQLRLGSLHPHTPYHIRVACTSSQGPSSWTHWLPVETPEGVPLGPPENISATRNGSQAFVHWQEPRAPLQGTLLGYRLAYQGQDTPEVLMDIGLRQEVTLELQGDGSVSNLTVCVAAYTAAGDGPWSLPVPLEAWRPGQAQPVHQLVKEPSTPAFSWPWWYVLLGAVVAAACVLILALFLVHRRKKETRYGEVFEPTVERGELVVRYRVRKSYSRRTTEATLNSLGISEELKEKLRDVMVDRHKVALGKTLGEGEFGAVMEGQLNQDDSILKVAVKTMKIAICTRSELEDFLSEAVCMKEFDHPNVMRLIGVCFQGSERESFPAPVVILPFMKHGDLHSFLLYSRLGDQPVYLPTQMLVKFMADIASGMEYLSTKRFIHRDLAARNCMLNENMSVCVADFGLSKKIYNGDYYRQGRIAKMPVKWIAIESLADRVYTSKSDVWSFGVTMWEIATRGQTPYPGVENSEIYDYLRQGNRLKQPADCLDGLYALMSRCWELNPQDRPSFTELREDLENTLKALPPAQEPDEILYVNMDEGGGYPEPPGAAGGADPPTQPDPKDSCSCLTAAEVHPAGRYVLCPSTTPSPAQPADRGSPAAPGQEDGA
The assay is described as follows: KdELECT binding assay.

What is called Kd is the equilibrium constant for the complex coming apart. Read a high Kd as a looser complex. `CN1CCN(Cc2ccc(Nc3ncc(Cl)c(Nc4ccccc4S(=O)(=O)N(C)C)n3)cc2)CC1` [TP-0903] registered a Kd of 8.2 nM.
